The experiment deals with p300 (Homo sapiens, UniProt Q09472). Kind of experiment: In vitro acetylation assay (p300, histone 3 Lys 18 / Lys 27, western blot). Type of experiment: biochemical. Particulars: compound in DMSO, tested form: HCl. Background: A western blot detects proteins with antibodies after separation by electrophoresis.

The chains behind the UniProt entries cited, without tags or fusion partners.
UniProt Q09472, whole entry: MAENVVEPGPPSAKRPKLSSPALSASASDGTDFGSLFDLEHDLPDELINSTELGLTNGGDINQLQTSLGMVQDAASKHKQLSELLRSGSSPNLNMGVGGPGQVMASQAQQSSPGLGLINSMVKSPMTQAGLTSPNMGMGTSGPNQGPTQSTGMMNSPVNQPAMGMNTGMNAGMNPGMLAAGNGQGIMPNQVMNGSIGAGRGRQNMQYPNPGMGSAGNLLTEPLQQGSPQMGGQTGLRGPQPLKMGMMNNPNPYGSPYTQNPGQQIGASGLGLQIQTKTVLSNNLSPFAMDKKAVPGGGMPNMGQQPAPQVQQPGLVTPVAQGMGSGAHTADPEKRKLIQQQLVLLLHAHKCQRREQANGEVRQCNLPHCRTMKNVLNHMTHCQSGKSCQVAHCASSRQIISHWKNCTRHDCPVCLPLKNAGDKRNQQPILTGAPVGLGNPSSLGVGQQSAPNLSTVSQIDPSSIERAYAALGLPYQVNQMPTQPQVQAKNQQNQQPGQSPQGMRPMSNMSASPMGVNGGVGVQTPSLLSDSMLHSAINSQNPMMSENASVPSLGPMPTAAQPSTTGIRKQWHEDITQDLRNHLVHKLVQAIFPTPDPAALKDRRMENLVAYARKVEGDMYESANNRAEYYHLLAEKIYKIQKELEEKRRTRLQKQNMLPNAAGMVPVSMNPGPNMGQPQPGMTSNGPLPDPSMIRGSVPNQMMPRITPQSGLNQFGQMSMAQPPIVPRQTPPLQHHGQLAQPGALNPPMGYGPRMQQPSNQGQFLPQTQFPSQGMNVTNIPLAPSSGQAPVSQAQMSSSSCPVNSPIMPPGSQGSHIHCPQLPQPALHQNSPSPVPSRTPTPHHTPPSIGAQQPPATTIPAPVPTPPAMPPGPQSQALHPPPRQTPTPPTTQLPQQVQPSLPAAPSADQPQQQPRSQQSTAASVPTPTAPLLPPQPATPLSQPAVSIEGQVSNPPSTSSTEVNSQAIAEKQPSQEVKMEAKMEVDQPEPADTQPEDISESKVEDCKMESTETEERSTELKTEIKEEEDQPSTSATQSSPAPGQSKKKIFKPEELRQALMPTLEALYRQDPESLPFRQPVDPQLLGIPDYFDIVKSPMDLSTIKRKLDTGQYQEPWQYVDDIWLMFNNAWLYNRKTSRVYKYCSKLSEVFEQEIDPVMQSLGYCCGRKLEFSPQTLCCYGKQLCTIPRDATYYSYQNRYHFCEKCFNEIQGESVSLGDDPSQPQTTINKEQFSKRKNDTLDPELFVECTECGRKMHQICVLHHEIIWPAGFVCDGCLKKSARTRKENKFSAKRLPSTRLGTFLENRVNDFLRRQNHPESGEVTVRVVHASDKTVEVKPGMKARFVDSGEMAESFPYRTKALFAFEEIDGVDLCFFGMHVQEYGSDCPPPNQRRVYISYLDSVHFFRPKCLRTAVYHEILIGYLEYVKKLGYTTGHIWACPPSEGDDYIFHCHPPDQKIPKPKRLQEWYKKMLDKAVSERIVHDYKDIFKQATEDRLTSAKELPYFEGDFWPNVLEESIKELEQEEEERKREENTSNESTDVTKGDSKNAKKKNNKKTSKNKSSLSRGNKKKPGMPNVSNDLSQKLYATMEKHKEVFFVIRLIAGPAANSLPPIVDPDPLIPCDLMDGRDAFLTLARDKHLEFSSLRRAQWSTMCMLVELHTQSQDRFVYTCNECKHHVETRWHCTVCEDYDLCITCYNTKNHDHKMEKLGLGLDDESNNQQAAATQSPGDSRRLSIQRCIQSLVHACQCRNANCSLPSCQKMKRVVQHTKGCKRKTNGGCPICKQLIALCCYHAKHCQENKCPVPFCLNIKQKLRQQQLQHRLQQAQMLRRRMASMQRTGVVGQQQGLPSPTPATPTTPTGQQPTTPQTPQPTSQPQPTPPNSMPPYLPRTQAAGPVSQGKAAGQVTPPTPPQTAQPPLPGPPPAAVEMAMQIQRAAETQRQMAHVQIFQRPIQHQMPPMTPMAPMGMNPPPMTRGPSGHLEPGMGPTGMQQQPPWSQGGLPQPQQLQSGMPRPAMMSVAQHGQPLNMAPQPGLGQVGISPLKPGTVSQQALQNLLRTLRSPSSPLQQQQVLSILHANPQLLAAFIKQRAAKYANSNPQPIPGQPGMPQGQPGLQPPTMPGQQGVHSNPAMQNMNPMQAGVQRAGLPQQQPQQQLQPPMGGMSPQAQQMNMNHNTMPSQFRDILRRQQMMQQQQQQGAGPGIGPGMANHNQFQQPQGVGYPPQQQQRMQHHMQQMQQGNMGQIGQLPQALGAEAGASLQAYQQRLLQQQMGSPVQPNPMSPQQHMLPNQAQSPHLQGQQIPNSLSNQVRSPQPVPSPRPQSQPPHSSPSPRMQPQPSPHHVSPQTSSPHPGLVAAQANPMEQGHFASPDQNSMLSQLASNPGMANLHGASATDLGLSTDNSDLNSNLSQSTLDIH

For `CCOc1cccc(OCCN(C)C)c1C(=O)Nc1ncc(Cl)cn1`, the “H3-Lys 27 EC50” value (Lys 27 of histone 3, EC50 for activators) was “NO ACTIVITY”. Where the note is “Lys 27 of histone 3, IC50 for inhibitors”, the “H3-Lys 27 IC50” value is on record as “NO ACTIVITY”. Further, the EC50 (read-out: H3-Lys 18 EC50, Lys 18 of histone 3, EC50 for activators) was 97 nM.

In general, EC50 refers to the concentration needed to bring the measured effect to its halfway point.

The record behind these values is patent publication US20220125748A1, “HISTONE ACETYLTRANSFERASE (HAT) REGULATORS AND USES THEREOF” (The Trustees of Columbia University in the City of New York, priority 2019, published 2022).
